{
  "sequences": {"note": "The chains behind the UniProt entries cited, without tags or fusion partners. Where a name states a change or a piece, a line headed by the entry shows the natural chain unless it says otherwise.", "UniProt Q9GZU7": "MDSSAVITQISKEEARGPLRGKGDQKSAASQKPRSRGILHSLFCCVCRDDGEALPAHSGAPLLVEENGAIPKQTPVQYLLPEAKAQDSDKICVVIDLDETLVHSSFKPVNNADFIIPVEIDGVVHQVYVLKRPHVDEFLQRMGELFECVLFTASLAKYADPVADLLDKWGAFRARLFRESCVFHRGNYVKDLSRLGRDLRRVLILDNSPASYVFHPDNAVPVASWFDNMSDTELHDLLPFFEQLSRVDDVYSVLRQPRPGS"},
  "source": "PubChem BioAssay AID493091",
  "about": "(Sanford-Burnham Center for Chemical Genomics, 2011)",
  "note": "This is a selection; strong and weak results do not stand in their true shares. Calls of active or inactive are those of the source.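 The calls were made as follows: active = inhibition above about 50% at 20 µM (limit read from the data); inactive = the rest.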",
  "data": [
    {"molecular_target": "Carboxy-terminal domain RNA polymerase II polypeptide A small phosphatase 1 (Homo sapiens) (UniProt Q9GZU7)", "assay": "inhibition of human SCP1 dephosphorylation activity – biochemical, colorimetric, uHTS, primary screen (AID 493091);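 also: plate controls were DMSO wells with enzyme for no effect and wells lacking enzyme for full effect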", "conditions": "Recombinant Scp1, phosphopeptide, malachite green phosphate absorbance; at 20 µM; hits give high values", "outline": "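assay system = SCP-1 phosphatase catalytic domain, residues 76-261 | buffer or medium = 50 mM Tris acetate pH 5.5, 0.005% Tween-20, 10 mM MgCl2 | incubation = enzyme reaction 45 min at room temperature, colour 5 min, stabilisation 30 min | signal = Phosphate-binding colour reagent, absorbance read at 630 nm | measure = % inhibition at 20 µM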", "values": [
      {"smiles": "O=[N+]([O-])c1cc(Oc2ccc([N+](=O)[O-])cc2C(F)(F)F)cc([N+](=O)[O-])c1", "inhibition": "inactive: -4.68%"},
      {"smiles": "COc1ccc(N/C(=N/P(=O)(N2CCOCC2)N2CCOCC2)N2CCOCC2)cc1", "inhibition": "inactive: -8.95%"},
      {"smiles": "Cc1c2c(nc3ccccc13)SC(C(Cl)Cl)C2", "note": "(configuration not stated)", "inhibition": "inactive: -2.82%"},
      {"smiles": "O=C(OC1CN2CCC1CC2)C12CC3CC(CC(C3)C1)C2", "note": "(configuration not stated)", "inhibition": "inactive: -10.4%"},
      {"smiles": "Cc1cc(=O)[nH]c(N[N+](=O)[O-])n1", "inhibition": "inactive: 2.1%"},
      {"smiles": "O=P1(N(CCCl)CCCl)OCCCN1CCCl", "note": "(configuration not stated)", "inhibition": "inactive: -1.8%"},
      {"smiles": "O=P1(N(CCCl)CCCl)Nc2ccccc2N1", "inhibition": "inactive: -32.5%"},
      {"smiles": "COc1ccc2nc(NP(=O)(c3ccccc3)c3ccccc3)sc2c1", "inhibition": "inactive: -6.05%"},
      {"smiles": "COc1cc(I)ccc1[As](=O)(O)O", "inhibition": "inactive: -5.75%"},
      {"smiles": "ClCCSc1nnc(-c2cccnc2)o1", "inhibition": "inactive: -5.01%"},
      {"smiles": "COC(=O)C1(C)COP(=O)(N2CCCCCC2)OC1", "note": "(configuration not stated)", "inhibition": "inactive: -0.31%"},
      {"smiles": "CC(C)c1ccc(OP(=O)(Nc2ccccn2)Oc2ccccc2F)cc1", "note": "(configuration not stated)", "inhibition": "inactive: 0.86%"},
      {"smiles": "CC(C)NC(=O)NP(=O)(Oc1ccccc1)Oc1ccccc1", "inhibition": "inactive: 4.49%"},
      {"smiles": "O=C(OC1CN2CCC1CC2)c1cccc2[nH]cnc12", "note": "(configuration not stated)", "inhibition": "inactive: -2.17%"},
      {"smiles": "CCN(CC)C(=S)SC(NC=O)C(Cl)(Cl)Cl", "note": "(configuration not stated)", "inhibition": "inactive: -4.53%"},
      {"smiles": "O=[N+]([O-])c1cc([N+](=O)[O-])c(-c2ccn[nH]2)s1", "inhibition": "inactive: -8.66%"},
      {"smiles": "C[As](=O)(O)c1cccc(C(=O)O)c1", "inhibition": "inactive: -11%"},
      {"smiles": "O=[As](O)(c1ccc(O)cc1)c1ccccc1O", "inhibition": "inactive: -3.96%"},
      {"smiles": "O=[N+]([O-])c1ccc(-c2cc([N+](=O)[O-])c(O)c([N+](=O)[O-])c2)cc1", "inhibition": "inactive: 7.97%"},
      {"smiles": "COc1cc(C(=O)NCC2(N3CCOCC3)CCCCC2)ccc1OCC(C)C", "inhibition": "inactive: 5.82%"},
      {"smiles": "Cc1ccc(OP(=O)(Nc2ccc([N+](=O)[O-])cn2)Oc2ccc(C)cc2)cc1", "inhibition": "inactive: -4.19%"},
      {"smiles": "Cc1ccc2nc3c(c(C)c2c1)CC(C(Cl)Cl)S3", "note": "(configuration not stated)", "inhibition": "inactive: 2.68%"},
      {"smiles": "CCOC(=O)Nc1cccc([As](=O)(O)O)c1", "inhibition": "inactive: 4.15%"},
      {"smiles": "O=P(Nc1ccccn1)(c1cccc2ccccc12)c1cccc2ccccc12", "inhibition": "inactive: -1.41%"},
      {"smiles": "Cc1cc(SC(NC=O)C(Cl)(Cl)Cl)ncn1", "note": "(configuration not stated)", "inhibition": "inactive: 1.17%"},
      {"smiles": "O=[N+]([O-])c1ccc(Nc2ccc(Oc3ccc([N+](=O)[O-])cc3[N+](=O)[O-])cc2)c([N+](=O)[O-])c1", "inhibition": "inactive: 22.5%"},
      {"smiles": "CCOC(=O)Nc1ccc([As](=O)(O)O)c(O)c1", "inhibition": "inactive: -7.43%"}
    ]}
  ]
}
